The record followed here is PubChem BioAssay AID2177 (The Scripps Research Institute Molecular Screening Center, 2009).

Chains of the proteins cited; added tags and fusions are not shown.
UniProt O95372, whole entry: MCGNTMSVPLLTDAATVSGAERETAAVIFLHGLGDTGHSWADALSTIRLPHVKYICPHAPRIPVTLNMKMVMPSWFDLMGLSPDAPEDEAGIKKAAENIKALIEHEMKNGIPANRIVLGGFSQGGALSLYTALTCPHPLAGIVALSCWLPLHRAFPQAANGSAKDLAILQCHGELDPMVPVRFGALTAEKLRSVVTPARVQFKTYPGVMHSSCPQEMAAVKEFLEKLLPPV

Molecules are shown by their SMILES. The entries are a selection whose mix differs from that of the whole data set. Calls of active or inactive are those of the source.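 Rule for the calls: active = inhibition above the screen-wide mean plus 3 SD, limit set per campaign (cut at about 26% in these data); inactive = the rest.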

What is called inhibition is the change of the read-out against control, counted positive when it falls.

The test deals with Acyl-protein thioesterase 2 (Homo sapiens) (UniProt O95372). The test is described as follows: LYPLA2 inhibitors, primary screen, counter-screen for PME1 inhibitor project, biochemical, fluorescence polarization, FP-Rh probe ABPP (AID 2177).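 Note: 0% = LYPLA2 with DMSO and 100% = wells lacking LYPLA2 enzyme.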 Particulars: recombinant LYPLA2, FP-Rh probe fluorescence polarization; at 5.9 µM; hits give high values.
For `CCc1ccc(OP(C)(=O)N2CCN(c3ccc([N+](=O)[O-])cc3)CC2)cc1` (stereo unspecified), the inhibition was inactive: 5.18%.

As to `CCOP(C)(=S)SCC(=O)NC(C)C(=O)O` (stereo unspecified), the inhibition is inactive: -0.25%.

On to `O=[N+]([O-])c1cc([N+](=O)[O-])c(O)c([N+](=O)[O-])c1.c1ccc(Oc2ccncc2)cc1`, for which the inhibition is inactive: 6.4%.

With `CCOC(=O)c1ccc(NP(C)(=O)Oc2ccc(OC)cc2)cc1` (stereo unspecified), the inhibition was inactive: -2.74%.

In the case of `CP(=O)(Nc1ccccn1)Oc1ccc(Cl)cc1` (stereo unspecified), the inhibition is inactive: 5.36%.

As for `CP(=S)(Nn1cnnc1)Oc1ccccc1` (stereo unspecified), the inhibition was inactive: 1.27%.

In the case of `COc1ccccc1OP(C)(=O)Nc1ccccc1` (stereo unspecified), the inhibition was inactive: 6.07%.

With `CP(=O)(Nc1ccccc1Br)Oc1ccccc1` (stereo unspecified), the inhibition is inactive: -5.8%.

In the case of `CCOC(=O)C(CC)C1=NC(C)(C)Cc2ccccc21.O=[N+]([O-])c1cc([N+](=O)[O-])c(O)c([N+](=O)[O-])c1` (stereo unspecified), the inhibition is inactive: -4.74%.

In the case of `CC1=C2N=C(C=C3N=C(C(C)=C4[N-][C@@](C)([C@@H]5N=C1[C@](C)(CCC(=O)NC[C@@H](C)OP(=O)([O-])O[C@H]1[C@@H](O)[C@@H](n6cnc7cc(C)c(C)cc76)O[C@@H]1CO)[C@H]5CC(N)=O)[C@@](C)(CC(N)=O)[C@@H]4CCC(N)=O)[C@@](C)(CC(N)=O)[C@@H]3CCC(N)=O)C(C)(C)[C@@H]2CCC(N)=O.[C-]#N.[Co+3]`, the inhibition was inactive: 1.72%.

In the case of `O=[N+]([O-])c1cc([N+](=O)[O-])c(Nc2nnnn2CCO)c([N+](=O)[O-])c1`, the inhibition is inactive: 3.37%.

Consider `CN1CCCCC1COC(=O)C1(O)c2ccccc2CCc2ccccc21` (stereo unspecified), for which the inhibition is inactive: -3.02%.

`COc1ccccc1OP(C)(=O)Nc1c(C)cccc1C` (stereo unspecified): the inhibition was inactive: -7.99%.

For `CCCOc1ccc(NP(C)(=O)Oc2ccc(Cl)cc2)cc1` (stereo unspecified), the inhibition was inactive: 0.42%.

`CP(=O)(Nc1ccc(SC(F)(F)F)cc1)Oc1ccccc1` (stereo unspecified): the inhibition is inactive: -3.4%.

For the molecule `O=[N+]([O-])c1cc([N+](=O)[O-])c(-n2nnc3ccccc32)c([N+](=O)[O-])c1`, the inhibition was inactive: 16.8%.

For the molecule `O=[N+]([O-])c1cc([N+](=O)[O-])c(-c2cnn(-c3ccccc3)c2)c([N+](=O)[O-])c1`, the inhibition was inactive: 12.1%.

On to `Cc1nc2ccc3ccccc3c2s1.O=[N+]([O-])c1cc([N+](=O)[O-])c(O)c([N+](=O)[O-])c1`, for which the inhibition was inactive: -3.03%.

Turning to `COc1ccccc1OP(C)(=O)Nc1cccc(Br)c1` (stereo unspecified), the inhibition is inactive: 4.33%.

On to `Cc1cc(C)cc(OP(C)(=O)Nc2ccc(C)cc2C)c1` (stereo unspecified), for which the inhibition was inactive: 1.96%.

`CCOC(=O)c1ccc(NP(C)(=O)Oc2cc(C)cc(C)c2)cc1` (stereo unspecified): the inhibition is inactive: 7.77%.

Take `Cc1cc(C)cc(OP(C)(=O)Nc2ccccn2)c1` (stereo unspecified): the inhibition is inactive: -0.05%.

`CP(=O)(Nc1cccc(Br)c1)Oc1ccccc1` (stereo unspecified): the inhibition is inactive: 13%.

As for `Cc1ccc(C)c(NP(C)(=O)Oc2ccccc2)c1` (stereo unspecified), the inhibition was inactive: 3.95%.

As to `O=C(O)c1cccc(Nc2c([N+](=O)[O-])cc([N+](=O)[O-])cc2[N+](=O)[O-])c1`, the inhibition was inactive: 3.13%.

As to `CC1=NCCc2c1[nH]c1ccccc21.O=[N+]([O-])c1cc([N+](=O)[O-])c(O)c([N+](=O)[O-])c1`, the inhibition is inactive: 1.79%.
